Only a part is listed here, and it is no random draw. Some of these compounds have results that are not shown, active ones among them. Activity calls are given as the source filed them.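 Rule for the calls: active = percent inhibition above its own plate's cutoff, namely the mean of that plate's compound wells plus 3 SD; inactive = the rest.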

Amino acid sequences for entries named in this document (tags omitted).
UniProt P11229, whole entry: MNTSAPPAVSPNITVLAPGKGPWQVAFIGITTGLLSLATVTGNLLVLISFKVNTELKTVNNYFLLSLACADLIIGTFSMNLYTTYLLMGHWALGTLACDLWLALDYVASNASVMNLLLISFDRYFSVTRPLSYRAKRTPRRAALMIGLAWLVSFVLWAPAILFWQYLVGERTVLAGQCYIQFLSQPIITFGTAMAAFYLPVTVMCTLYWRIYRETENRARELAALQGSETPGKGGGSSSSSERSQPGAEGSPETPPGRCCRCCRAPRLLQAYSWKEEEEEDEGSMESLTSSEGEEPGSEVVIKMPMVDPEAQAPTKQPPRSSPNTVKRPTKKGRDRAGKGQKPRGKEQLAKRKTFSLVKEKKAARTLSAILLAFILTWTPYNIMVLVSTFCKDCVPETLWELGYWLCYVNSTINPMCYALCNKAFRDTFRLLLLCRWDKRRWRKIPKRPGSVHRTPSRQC

The text below walks through data of PubChem BioAssay AID588852 (The Scripps Research Institute Molecular Screening Center, 2011).

In this test the target is Muscarinic acetylcholine receptor M1 (Homo sapiens) (UniProt P11229). Kind of test: human M1 muscarinic receptor antagonists, primary screen, CHO-K1 cells, Fluo-8 calcium fluorescence, 1536-well (AID 588852).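 Note: peak over basal fluorescence ratio during 140 s after agonist addition; 0% = ACh EC80 plus DMSO and 100% = DMSO alone without agonist.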 Particulars: CHO-K1 hM1, Fluo-8 calcium fluorescence, ACh EC80 antagonist; at 3 µM; stronger effect = higher value.
With `O=C(NCC1(N2CCCCC2)CCCCC1)c1cccc(Cl)c1`, the inhibition was inactive: -23.3%.
The result for `COc1cccc(C(=O)NCC2(N3CCCCC3)CCCCC2)c1` reads inactive: -2.68%.
Regarding `COc1ccc(Cl)cc1C(=O)NCC1(N(C)C)CCCCC1`, the inhibition is inactive: 0.75%.
`COc1cc(C(=O)NCC2(N(C)C)CCCCC2)c([N+](=O)[O-])cc1OC`: the inhibition was inactive: -15.5%.
The result for `CN(C)C1(CNC(=O)c2ccc(Br)cc2)CCCCC1` reads inactive: -13.4%; that for `CC(C)Oc1ccc(C(=O)NCC2(N(C)C)CCCCC2)cc1`, inactive: -3.39%; that for `CN(C)c1cccc(C(=O)NCC2(N(C)C)CCCCC2)c1`, inactive: 0.12%.
Under `COc1ccc(Br)c(C(=O)NCC2(N3CCCCC3)CCCCC2)c1` stands inactive: -4.33%.
For the molecule `Cc1ccc(C(=O)NCC2(N3CCCCC3)CCCCC2)cc1`, the inhibition was inactive: -11.5%.
The result for `COc1cc(SC)ccc1C(=O)NCC1(N(C)C)CCCCC1` reads inactive: -16.4%.
The result for `CC(C)N1C(=O)CC2(CCN(CCOC(=O)C(O)(c3ccccc3)c3ccccc3)CC2)C1=O` reads inactive: -26.8%; that for `O=C(NCC1(N2CCCCC2)CCCCC1)c1cc([N+](=O)[O-])ccc1Cl`, inactive: -5.81%.
Turning to `COc1ccc(C(=O)NCC2(N(C)C)CCCCC2)cc1`, the inhibition was inactive: -9.23%.
Under `Cc1cc(C(=O)NCC2(N3CCCCC3)CCCCC2)ccc1[N+](=O)[O-]` stands inactive: -4.39%; under `O=C(NCC1(N2CCCCC2)CCCCC1)c1cccc(Br)c1`, inactive: -11.8%.
Regarding `O=C(NCC1(N2CCCCC2)CCCCC1)c1cc(F)c(F)cc1Cl`, the inhibition was inactive: 7.21%.
For `Cc1ccccc1C(=O)NCC1(N2CCCCC2)CCCCC1`, the inhibition is inactive: -6.32%.
For `CN(C)c1ccc(C(=O)NCC2(N(C)C)CCCCC2)cc1`, the inhibition was inactive: -7.47%.
